Assay: in vitro
Settings: human, human liver microsomes

Compound: O=C(O)Cc1ccccc1Nc1c(Cl)cccc1Cl [Diclofenac]
- CLint scaled at 1 µM: 309 mL/min/kg
